Data published in ChEMBL document CHEMBL1208792, “A novel series of [3.2.1] azabicyclic biaryl ethers as alpha3beta4 and alpha6/4beta4 nicotinic receptor agonists” (Bioorg Med Chem Lett, 2010).

The chains behind the UniProt entries cited, without tags or fusion partners.
UniProt P36544, whole entry: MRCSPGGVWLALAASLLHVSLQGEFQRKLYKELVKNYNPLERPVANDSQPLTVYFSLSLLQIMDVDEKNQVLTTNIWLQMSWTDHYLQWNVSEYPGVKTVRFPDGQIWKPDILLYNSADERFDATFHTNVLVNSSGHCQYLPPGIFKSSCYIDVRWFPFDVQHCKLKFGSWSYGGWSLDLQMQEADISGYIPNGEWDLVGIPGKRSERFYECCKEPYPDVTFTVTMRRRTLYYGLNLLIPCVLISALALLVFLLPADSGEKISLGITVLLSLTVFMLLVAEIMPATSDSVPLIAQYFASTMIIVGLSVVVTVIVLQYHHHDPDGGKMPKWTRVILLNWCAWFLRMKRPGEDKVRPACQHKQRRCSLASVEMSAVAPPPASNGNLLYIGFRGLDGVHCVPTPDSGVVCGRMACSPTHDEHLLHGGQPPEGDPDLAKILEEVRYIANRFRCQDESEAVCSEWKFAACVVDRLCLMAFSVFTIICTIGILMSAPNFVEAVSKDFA

Molecular target: Neuronal acetylcholine receptor subunit alpha-7 (Homo sapiens, UniProt P36544)
Assay: Displacement of [3H]epibatidine from alpha7 nicotinic receptor expressed in human HEK293 cells
Assay type: cell-based

SMILES: c1cnc2cc3c(cc2n1)[C@@H]1CNC[C@H]3C1 [VARENICLINE]
- Ki: 125 nM
